Source: patent US20250188188A1 (DIANTHUS THERAPEUTICS OPCO, published 2025)
Numbering of substitutions follows the chain as printed. Names may count otherwise.

T1: active human C1s purified from human serum (CompTech, Tyler, TX, catalog number A104) (human, UniProt P09871 16-437; P09871 438-688)
T1 sequence 1: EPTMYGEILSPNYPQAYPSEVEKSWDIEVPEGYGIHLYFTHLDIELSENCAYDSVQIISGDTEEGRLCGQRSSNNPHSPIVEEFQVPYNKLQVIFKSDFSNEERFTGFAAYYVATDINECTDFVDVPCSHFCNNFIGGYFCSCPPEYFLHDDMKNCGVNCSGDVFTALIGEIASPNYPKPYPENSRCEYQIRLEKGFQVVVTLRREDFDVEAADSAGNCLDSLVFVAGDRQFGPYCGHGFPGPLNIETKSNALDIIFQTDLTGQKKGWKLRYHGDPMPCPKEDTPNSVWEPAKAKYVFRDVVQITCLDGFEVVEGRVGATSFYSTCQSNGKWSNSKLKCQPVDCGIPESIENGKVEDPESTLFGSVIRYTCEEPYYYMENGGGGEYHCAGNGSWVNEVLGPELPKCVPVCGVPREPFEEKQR
T1 sequence 2: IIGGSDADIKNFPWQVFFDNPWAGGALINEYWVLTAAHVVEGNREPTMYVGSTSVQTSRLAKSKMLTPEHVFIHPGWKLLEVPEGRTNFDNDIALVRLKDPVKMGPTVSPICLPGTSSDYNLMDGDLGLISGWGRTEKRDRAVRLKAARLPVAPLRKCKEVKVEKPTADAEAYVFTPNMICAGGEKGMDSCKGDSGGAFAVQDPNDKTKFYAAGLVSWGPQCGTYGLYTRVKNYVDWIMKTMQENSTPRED

B1: IgG4-MAB17 (MAB17 in human IgG4 with S228P, L235E and YTE) (antibody, V domains shown)
VH: QVQLVQSGAEVKKPGASVKVSCKVSGDTLTELSMHWVRQAPGKGLEWMGTFDPEEGETIYAQKFQGRVTMTEDTSTDTAYMELSSLRSEDTAVYYCVTEGEAGRPFDAWGQGTLVTVSS
VL: [about 100 residues with changes cut from this listing]
B2: MAB13 (antibody, V domains shown)
VH: B1 VH with E101L, R104F, A108I
VL: [about 100 residues cut from this listing]
notes: IgG
B3: MAB19 (antibody, V domains shown)
VH: B1 VH with S85Y, E101L, R104I, A108S
VL: [about 100 residues cut from this listing]
notes: IgG

Experiments:
[1] = molecular target: T1, active human C1s purified from human …; assay: cell-based or functional assay
[2] = molecular target: T1, active human C1s purified from human …; assay: cell-based or functional assay; remark: listed apart in the source
[3] = molecular target: T1, active human C1s purified from human …; assay: cell-based or functional assay; remark: listed apart in the source
[4] = molecular target: T1, active human C1s purified from human …; assay: SPR, antibody captured via anti-human Fc, C1s in solution

Binder | IC50, inhibition of C3b deposition on sensitized hRBCs in 7.5% human serum (flow cytometry), Donor A [1] | IC50, inhibition of C3b deposition on sensitized hRBCs in 7.5% human serum (flow cytometry), Donor B (1) [1] | IC50, inhibition of C3b deposition on sensitized hRBCs in 7.5% human serum (flow cytometry), Donor B (2) [1] | IC50, inhibition of Wieslab complement classical pathway (C5b-9 ELISA), 1% human serum [2] | IC50, inhibition of sensitized hRBC lysis in 25% human serum, Donor 1 [3] | IC50, inhibition of sensitized hRBC lysis in 25% human serum, Donor 2 [3] | IC50, inhibition of sensitized hRBC lysis in 25% human serum, Donor 3 [3] | Kd [4] | koff [4] | kon [4]
B1 | 40.7 nM | 112 nM | 202 nM | 4.1 nM | 11 nM | 20.5 nM | 3.8 nM |  |  | 
B2 |  |  |  |  |  |  |  | 6 nM | 0.00122 s⁻¹ | 204000 M⁻¹ s⁻¹
B3 |  |  |  |  |  |  |  | 6.18 nM | 0.000657 s⁻¹ | 106000 M⁻¹ s⁻¹
